{"source": "patent US20110182926A1", "about": "“[…]” (priority 2008, published 2011)", "key": {"HLA-A*0201 [1]": {"molecular_target": "T1, HLA-A*0201 (Homo sapiens, UniProt P04439, D140Y/D185E/D98H/E176V/E277Q/G131W/G231S/I119V/I121R/I166T/I218V/L300P/L318F/N151K/N90K/P208A/P217A/Q86G/Q94H/R138H/R169H/T345S)", "test": "In vitro cellular binding assay of CEA peptides on TAP-deficient T2 cells (FACS)", "conditions": "50 μM peptide, 18 hours at 37° C., FIG. 3", "method": "To determine the binding ability of EI Suite-selected wild type peptides and analogs, an in vitro cellular binding assay was performed using the TAP-deficient cell line T2. T2 cells are HLA-A*0201 positive, MHC class II negative and TAP deficient, meaning that they lack a functional transporter associated with antigen presentation, so that they accumulate empty unstable class I molecules.\nT2 cells were incubated with 50 μM peptide in serum-free RPMI 1640 supplemented with 5 μg/mL human β2m (Fluka) for 18 hours at 37° C. HLA-A*0201 expression was then measured by flow cytometry using the anti-HLA-A2.1 monoclonal antibody (mAb) BB7.2 followed by incubation with fluorescein isothiocyanate (FITC)-conjugated F(ab′)2 goat antimouse Ig (Biosource). The results are expressed as fluorescence index (FI) defined as a ratio (median channel of fluorescence) between the sample and a control without any peptide. An increase over the control of at least […] (FI>2) was arbitrarily chosen as the cutoff point.\nThe binding assay consisted of the exogenous addition of peptides and β2 microglobulin protein: peptide binding up-regulates surface HLA expression and HLA-A2 molecules on the surface are measured using FACS by means of an antibody capable of recognizing the peptide-MHC complex (Kuzushima et al. Blood; 98:1872-81 (2001); Passoni et al. Blood 99:2100-06 (2002))."}, "HLA-A*0201 [2]": {"molecular_target": "T1, HLA-A*0201", "test": "HLA-A*0201/peptide complex stability on T2 cells over time (FACS)", "type": "binding", "conditions": "50 μM peptide, 0-8 hours, FIG. 4", "method": "To assess the HLA-A*0201/peptide complex stability, T2 cells (10^6/mL) were incubated overnight with 50 μM of each peptide in serum-free RPMI 1640 supplemented with 100 ng/mL human β2m at 37° C. Cells were then washed 4 times to remove free peptides, incubated for 1 hour with 10 ng/mL Brefeldin A (Sigma-Aldrich) to block cell surface expression of newly synthesized HLA-A*0201 molecules, washed, and incubated at 37° C. for 0, 2, 4, 6, or 8 hours. Subsequently, cells were stained with anti-HLA-A2.1 mAb BB7.2. For each time point, peptide-induced HLA-A*0201 expression was calculated as mean fluorescence value of peptide incubated T2 cells/mean fluorescence value T2 cells in the absence of the peptide. Dissociation complex 50 (DC50) was defined as the time required for the loss of 50% of the HLA-A*0201/peptide complexes stabilized at t=0.\nBinding stability of the peptide-MHC complex was also evaluated over time. The CAP-1 peptide was used as positive control."}}}
{"sequence": "VLYGPDTPIV (Anchor-modified analog) [589V10]", "values": [{"measurement": "binding to HLA-A*0201 compared to wild-type counterpart", "setting": "HLA-A*0201 [1]", "result": "marked increase of binding"}, {"measurement": "stability of peptide-MHC complex compared to wild-type counterpart", "setting": "HLA-A*0201 [2]", "result": "improved stability"}]}
